According to paper PMC11911400, “Mechanism of ASF1 engagement by CDAN1” (Nature Communications, 2025):

T1: Strep-tagged CDAN1 (ST-CDAN1), wildtype (human, UniProt Q8IWY9 1-1227)
T1 construct: Codanin-1 (CDAN1), human, 1227 residues; cDNA from Horizon Discovery/Dharmacon, its point mutation S421F corrected; same construct used in Expi293 and in Flp-In 293 T-REx cells; dimer by SEC-MALS and cryo-EM; also called Strep-CDAN1; WT CDAN1; source: Expi293, transiently transfected, in lysate and purified in complexes (anti-FLAG, Strep-Tactin); Flp-In 293 T-REx, transiently transfected, in …
T1 sequence: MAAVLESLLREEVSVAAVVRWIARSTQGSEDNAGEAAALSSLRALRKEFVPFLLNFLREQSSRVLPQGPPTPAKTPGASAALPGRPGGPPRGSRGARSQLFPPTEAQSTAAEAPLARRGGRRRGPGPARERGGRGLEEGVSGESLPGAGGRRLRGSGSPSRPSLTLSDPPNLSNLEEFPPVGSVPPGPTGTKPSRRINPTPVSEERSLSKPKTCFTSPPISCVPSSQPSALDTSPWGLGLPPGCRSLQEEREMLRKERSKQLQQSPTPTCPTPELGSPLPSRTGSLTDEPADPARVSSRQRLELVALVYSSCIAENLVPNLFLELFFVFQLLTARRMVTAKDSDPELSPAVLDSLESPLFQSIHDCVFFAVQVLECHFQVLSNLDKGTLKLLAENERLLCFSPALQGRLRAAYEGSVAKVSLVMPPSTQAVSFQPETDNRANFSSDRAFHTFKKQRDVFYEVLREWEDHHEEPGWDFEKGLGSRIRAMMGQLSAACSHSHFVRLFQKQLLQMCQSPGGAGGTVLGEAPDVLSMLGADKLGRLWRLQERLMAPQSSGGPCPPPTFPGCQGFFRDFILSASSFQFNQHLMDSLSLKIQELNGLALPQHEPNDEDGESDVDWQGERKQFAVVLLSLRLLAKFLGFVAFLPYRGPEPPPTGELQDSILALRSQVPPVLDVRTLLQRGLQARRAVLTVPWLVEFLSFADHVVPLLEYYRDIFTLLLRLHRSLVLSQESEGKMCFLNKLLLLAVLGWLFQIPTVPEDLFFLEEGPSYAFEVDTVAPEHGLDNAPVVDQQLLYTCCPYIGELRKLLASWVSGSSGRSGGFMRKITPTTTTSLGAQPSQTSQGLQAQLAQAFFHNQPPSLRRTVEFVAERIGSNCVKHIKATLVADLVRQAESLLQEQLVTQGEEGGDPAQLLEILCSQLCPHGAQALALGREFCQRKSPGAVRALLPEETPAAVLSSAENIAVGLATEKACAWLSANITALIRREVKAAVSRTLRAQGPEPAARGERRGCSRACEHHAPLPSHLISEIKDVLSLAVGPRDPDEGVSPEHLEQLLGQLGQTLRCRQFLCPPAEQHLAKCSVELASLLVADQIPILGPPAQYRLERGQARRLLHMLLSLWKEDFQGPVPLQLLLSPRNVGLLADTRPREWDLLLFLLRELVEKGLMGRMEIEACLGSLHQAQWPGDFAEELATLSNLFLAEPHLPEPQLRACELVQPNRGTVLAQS

B1: HA-tagged ASF1A (natural protein)
chain: not shown
notes: ASF1A (Anti-Silencing Function 1 A), human; cDNA synthesized by IDT; also called HA-ASF1A; ASF1A-1; source: Expi293, transiently transfected, in lysate and purified in the C:C:A complex (anti-FLAG, Strep-Tactin); not shown: 3xHA, N-terminal, kept
B2: FLAG-tagged ASF1A (F-ASF1A) (natural protein)
chain: not shown
notes: ASF1A (Anti-Silencing Function 1 A), human; cDNA synthesized by IDT; same construct used in Expi293 and in Flp-In 293 T-REx cells; also called FLAG-ASF1A; source: Expi293, transiently transfected, in lysate and purified in the C:A complex (anti-FLAG, Strep-Tactin); Flp-In 293 T-REx, co-transfected, in lysate; not shown: 3xFLAG, N-terminal, kept

Biological target: T1, Strep-tagged CDAN1 (ST-CDAN1), wildtype
Test: SEC-MALS; 200 µg of each purified complex at 5 µM on SRT SEC-300 column, PBS pH 7.4 with 1 mM DTT; DAWN HELEOS II; dn/dc 0.185
Conditions: both partners purified

| stoichiometry N [ASF1A per two CDAN1] | Binder |
| --- | --- |
| 3 | B1 |
| 3 | B2 |
